We go through seven compounds from patent US20260347351A1.

The chains behind the UniProt entries cited, without tags or fusion partners.
UniProt Q9HCR9, whole entry: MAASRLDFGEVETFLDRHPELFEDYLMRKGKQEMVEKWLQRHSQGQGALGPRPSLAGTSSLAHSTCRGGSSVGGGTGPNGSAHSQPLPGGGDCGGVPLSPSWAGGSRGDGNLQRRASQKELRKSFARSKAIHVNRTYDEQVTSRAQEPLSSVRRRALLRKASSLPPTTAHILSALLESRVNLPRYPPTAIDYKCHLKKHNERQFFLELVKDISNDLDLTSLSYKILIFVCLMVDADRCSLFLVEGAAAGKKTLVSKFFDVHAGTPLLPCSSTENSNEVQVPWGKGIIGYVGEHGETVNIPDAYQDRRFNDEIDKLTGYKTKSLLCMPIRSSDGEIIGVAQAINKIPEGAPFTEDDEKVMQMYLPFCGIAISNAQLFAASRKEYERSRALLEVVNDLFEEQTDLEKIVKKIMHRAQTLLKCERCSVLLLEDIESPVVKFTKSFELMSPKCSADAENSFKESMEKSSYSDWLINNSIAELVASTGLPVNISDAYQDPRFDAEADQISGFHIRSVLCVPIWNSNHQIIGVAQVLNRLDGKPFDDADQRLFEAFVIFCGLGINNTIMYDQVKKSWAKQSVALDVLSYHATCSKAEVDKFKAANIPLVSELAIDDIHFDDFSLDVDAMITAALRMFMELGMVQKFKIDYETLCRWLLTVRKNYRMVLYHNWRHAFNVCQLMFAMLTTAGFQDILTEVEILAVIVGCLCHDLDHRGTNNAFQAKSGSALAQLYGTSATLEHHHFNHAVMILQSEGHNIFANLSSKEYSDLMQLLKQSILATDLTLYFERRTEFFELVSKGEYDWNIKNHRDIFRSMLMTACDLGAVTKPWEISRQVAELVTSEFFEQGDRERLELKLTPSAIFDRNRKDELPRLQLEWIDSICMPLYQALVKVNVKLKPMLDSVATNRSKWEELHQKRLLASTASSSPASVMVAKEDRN
UniProt P0C1Q2, whole entry: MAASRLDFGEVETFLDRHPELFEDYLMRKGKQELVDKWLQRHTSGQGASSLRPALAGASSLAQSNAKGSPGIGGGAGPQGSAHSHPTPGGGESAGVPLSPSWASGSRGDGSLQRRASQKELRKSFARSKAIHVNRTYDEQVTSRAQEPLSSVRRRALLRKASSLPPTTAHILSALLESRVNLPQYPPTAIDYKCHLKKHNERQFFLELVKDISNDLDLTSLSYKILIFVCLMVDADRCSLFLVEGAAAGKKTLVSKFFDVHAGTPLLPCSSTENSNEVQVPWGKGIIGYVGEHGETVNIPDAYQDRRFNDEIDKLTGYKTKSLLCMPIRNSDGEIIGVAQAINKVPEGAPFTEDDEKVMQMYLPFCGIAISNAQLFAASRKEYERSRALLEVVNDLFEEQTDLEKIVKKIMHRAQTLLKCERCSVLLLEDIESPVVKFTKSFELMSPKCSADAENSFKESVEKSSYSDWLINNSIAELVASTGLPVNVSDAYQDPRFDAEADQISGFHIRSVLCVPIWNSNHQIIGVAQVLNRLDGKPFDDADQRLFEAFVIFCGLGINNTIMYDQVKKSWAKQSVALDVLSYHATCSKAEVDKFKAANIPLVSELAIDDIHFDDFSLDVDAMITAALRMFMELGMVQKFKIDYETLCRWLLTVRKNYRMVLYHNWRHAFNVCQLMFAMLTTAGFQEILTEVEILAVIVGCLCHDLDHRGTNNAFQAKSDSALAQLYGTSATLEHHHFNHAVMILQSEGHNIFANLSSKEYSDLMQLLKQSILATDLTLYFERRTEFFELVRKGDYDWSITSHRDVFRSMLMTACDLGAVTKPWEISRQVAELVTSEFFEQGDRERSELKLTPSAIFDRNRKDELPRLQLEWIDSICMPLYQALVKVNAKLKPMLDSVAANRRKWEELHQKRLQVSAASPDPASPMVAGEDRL

Where two headings read alike, the source gives them in different places.

Series [1] has as its target T1, PDE11A4 (Homo sapiens, UniProt Q9HCR9). As to the kind of experiment: In vitro PDE11A4 enzyme inhibition assay (Ba(OH)2 precipitation method). The settings on record: biochemical assay.
Series [2] deals with T1, PDE11A4. As to the kind of experiment: Cell-based cAMP- and cGMP-PDE activity in HT-22 cells transfected with human PDE11A4.
Series [3] concerns the target mPDE11A4 (Mus musculus, UniProt P0C1Q2). As to the kind of experiment: Reversal of aging-like punctate accumulations of EmGFP-mPDE11A4 in HT-22 hippocampal cells. The note with it: HT-22 cells overexpressing EmGFP-mPDE11A4.
Series [4] can be described thus: Metabolite identification from microsomal incubation (LCMS/MS).
The nature of series [5]: Kinetic aqueous solubility, pH 7.4. The class given is physicochemical.
Series [6] in a line: Microsomal metabolic stability (human and mouse).
Series [7] deals with CYP3A4, CYP2D6, CYP2C9. As to the kind of experiment: CYP inhibition profile (CYP3A4, CYP2D6, CYP2C9). The series is classed as in vitro ADME, human.
Series [8] is described as follows: Lipophilicity. The series is classed as physicochemical.

One may read the EC50 as the concentration at which the effect is half-maximal. On to `CCN(CC)C(=O)c1cc(-c2ccnn2C)nc2c1c(C(F)F)nn2-c1ccccc1`, for which the “enzymatic potency (in words)” value in series [1] is listed as “measurably more potent in the biochemical assay compared to 14b”. In addition, the “efficacy on cyclic nucleotides in cells (in words)” value in series [2] (cAMP and cGMP, relative to tadalafil) is “significant improvement in efficacy compared to 1 for both cAMP and cGMP”. Further, the half-maximal effective concentration (EC50) in series [2] (read-out: EC50 (μM) cAMP, cAMP-PDE activity, average of four independent experiments) was 2.4 µM; in series [2] (read-out: EC50 (μM) cGMP, cGMP-PDE activity, average of four independent experiments) it was 1.7 µM.

As to `CCN(CC)C(=O)c1cc(-c2ccnn2C)nc2c1c(C)nn2-c1ccccc1`, in series [3], the “reversal of aging-like accumulations of mPDE11A4” value is “able to reverse these aging-like accumulations of mPDE11A4”. For the same compound, in series [4], the site of metabolism result is “the diethyl amide was identified as a primary site for oxidative transformation”.

Consider `CCN(CC)C(=O)c1cc(-c2cccs2)nc2c1c(C)nn2-c1ccccc1C`, for which, in series [5], the “water solubility (in words)” value is recorded as “good water solubility”. In addition, in series [6], the “microsomal stability (in words)” value was “rapid oxidative metabolism”.

With `O=c1nc2sc3ccccc3n2c(=O)n1-c1ccccc1`, the “water solubility (in words)” value in series [5] was “good water solubility”. In series [7], the “CYP profile (in words)” value was “favorable CYP profile”. Moreover, the “microsomal stability (in words)” value in series [6] was “generally favorable metabolic stability in human and mouse microsomes”.

Regarding `Cc1ccccc1Nc1ncnc2c1c(-c1ccccc1)cn2-c1ccc(F)cc1`, in series [6], the “microsomal stability (in words)” value is recorded as “good metabolic stability”. The “lipophilicity (in words)” value in series [8] is given as “highly lipophilic”.

For `CCCSc1nc2c(c(=O)n1-c1ccccc1)SCC2` [BC11-38], the “microsomal stability (in words)” value in series [6] is given as “metabolically unstable”.

On to `[2H]C([2H])([2H])C([2H])([2H])N(C(=O)c1cc(-c2ccnn2C)nc2c1c(C(F)F)nn2-c1ccccc1)C([2H])([2H])C([2H])([2H])[2H]`, for which, in series [4], the site of metabolism result was “the deuterated alkyl groups on the amide”. For the same compound, the “microsomal stability (in words)” value in series [6] is reported as “small improvement in microsomal stability”.
